Experimental melting point values from OPERA 2.9

Values as listed in the OPERA 2.9 repository of K. Mansouri.

The melting point is given in degrees Celsius. The databases behind each value are named after "via".

For CC(Cl)C(=O)c1ccc(Cl)cc1 (stereo unspecified) [2-chloro-1-(4-chlorophenyl)propan-1-one] the data give mp 56.92 °C (via OCHEM, eChemPortal). CCCCCO[N+](=O)[O-] [Amyl nitrate] has mp -123.3 °C (via PubChem). Nc1nnns1 [1,2,3,4-thiatriazol-5-amine] is reported with mp 121 °C (via OCHEM). Listed for ClCc1nc(-c2ccco2)no1 [5-(chloromethyl)-3-(2-furyl)-1,2,4-oxadiazole]: mp 83 °C (via OCHEM). The entry for Cc1ccc(CN)cn1 [(6-methylpyridin-3-yl)methanamine] lists mp 60 °C (via OCHEM). Cc1ccc2c(c1)Sc1ccc(C)cc1S2 [Mesulfen] is reported with mp 123 °C (via OCHEM). CN1CCC(n2nccc2N)CC1 [1-(1-methylpiperidin-4-yl)-1H-pyrazol-5-amine] is reported with mp 99 °C (via OCHEM).

For C=C1C/C(=C/C)C(=O)O[C@@H]2CCN3CC=C(COC(=O)[C@@]1(O)CO)[C@H]23 [Riddelliine] the data give mp 187.2 °C (via PubChem). Listed for Cc1nn(Cc2ccccc2)c(C)c1C(=O)O [1-Benzyl-3,5-dimethyl-1H-pyrazole-4-carboxylic acid]: mp 138 °C (via OCHEM). O=C(CCl)Nc1nncs1 [2-Chloro-N-(1,3,4-thiadiazol-2-yl)acetamide] is reported with mp 234 °C (via OCHEM). NC(=O)OCC(F)(F)F [2,2,2-Trifluoroethyl carbamate] is reported with mp 43 °C (via OCHEM). Clc1ccc(Cl)c(-c2ccccc2)c1 [2,5-Dichlorobiphenyl] has mp 23 °C (via QSARDB). For Brc1cc(Br)c(-c2ccccc2)c(Br)c1 [PBB 030] the data give mp 66 °C (via QSARDB). CNC(=S)[S-].[Na+] [Metam-sodium] is reported with mp 88.5 °C (via OCHEM).

For CCCCCC[C@H]1C(=O)O[C@H](C)[C@H](NC(=O)c2cccc(NC=O)c2O)C(=O)O[C@@H](C)[C@@H]1OC(=O)CC(C)C [Antimycin A1] the data give mp 150 °C (via OCHEM). COC1=C[C@]23CCN(C)[C@H](Cc4ccc(OC)c(O)c42)C3=CC1=O is reported with mp 197.5 °C (via PubChem). Listed for C=CCC1(CC(C)O)C(=O)NC(=O)NC1=O (stereo unspecified): mp 158 °C (via OCHEM). O=c1c2ccccc2nc(Cl)n1-c1ccccc1 [2-chloro-3-phenylquinazolin-4(3H)-one] has mp 128 °C (via OCHEM). CC(C)[C@@]1(NC(=O)[C@@H]2C=C3c4cccc5[nH]cc(c45)C[C@H]3N(C)C2)O[C@@]2(O)[C@@H]3CCCN3C(=O)[C@H](Cc3ccccc3)N2C1=O [Ergocristine] is reported with mp 175 °C (via PubChem). CC(=O)C=Cc1ccc2c(c1)OCO2 [Piperonal acetone] has mp 111 °C (via OCHEM). O=C(CCl)c1ccc(I)cc1 [2-chloro-1-(4-iodophenyl)ethanone] is reported with mp 128 °C (via OCHEM).

For C1=C(c2c[nH]c3ncccc23)CCNC1 [3-(1,2,3,6-Tetrahydropyridin-4-yl)-1H-pyrrolo[2,3-b]pyridine] the data give mp 182 °C (via OCHEM). Nc1ccccc1C(=O)OCCc1ccccc1 [Phenethyl anthranilate] is reported with mp 42 °C (via PubChem). Listed for C/C=C1/C[C@@H](C)[C@](O)(CO)C(=O)OCC2=CC[N+]3([O-])CC[C@@H](OC1=O)[C@@H]23 (some centres not stated) [Isatidine]: mp 138 °C (via PubChem). The entry for O=Cc1cc(CCl)ccc1O [5-(Chloromethyl)-2-hydroxybenzaldehyde] lists mp 88 °C (via OCHEM). The entry for N#Cc1cn([C@@H]2O[C@H](CO)[C@@H](O)[C@H]2O)c2ncnc(N)c12 [Toyocamycin] lists mp 243 °C (via OCHEM). For O=C(c1cc(Cl)c[nH]1)C(Cl)(Cl)Cl [2,2,2-trichloro-1-(4-chloro-1H-pyrrol-2-yl)ethanone] the data give mp 129 °C (via OCHEM). NCCc1nc2ccccc2s1 [2-(1,3-benzothiazol-2-yl)ethanamine] is reported with mp 48 °C (via OCHEM).

CCCCn1nnnc1CCl [1-Butyl-5-(chloromethyl)-1H-tetrazole] has mp 17 °C (via OCHEM). Listed for Clc1cc(Cl)c(-c2c(Cl)cc(Cl)cc2Cl)c(Cl)c1 [2,2',4,4',6,6'-Hexachlorobiphenyl]: mp 113 °C (via QSARDB). CC(Cl)c1cccc([N+](=O)[O-])c1 (stereo unspecified) [1-(1-Chloroethyl)-3-nitrobenzene] has mp 34 °C (via OCHEM). NC(=O)C[S-].NC(=O)C[S-].NC(=O)C[S-].[Sb+3] [Antimony thioglycollamide] is reported with mp 140 °C (via OCHEM). The entry for CN(/N=C/c1ccc(Br)cc1)P(=O)(N1CC1)N1CC1 [TEPA,N-p-Br-benzylidene-N-Me-hydrazin1yl] lists mp 118 °C (via OCHEM). Cn1ccc(C(=O)CCl)c1 [2-Chloro-1-(1-methyl-1H-pyrrol-3-yl)ethan-1-one] has mp 50 °C (via OCHEM). The entry for CC(C)NC(=O)NC(=O)CCl [1-(2-chloro-acetyl)-3-isopropyl-urea] lists mp 87 °C (via OCHEM).

Listed for CCC1(CC=C(C)C)C(=O)NC(=O)NC1=O [5-Ethyl-5-(3'-methylbut-2'-enyl)barbituric acid]: mp 158 °C (via OCHEM). The entry for CN(/N=C/c1ccc(F)cc1)P(=O)(N1CC1)N1CC1 [TEPA,N-p-F-benzylidene-N-Me-hydrazin-1yl] lists mp 106 °C (via OCHEM). Listed for O=C1NC(=O)C(c2ccccc2)(c2ccccc2)C(=O)N1 [5,5-Diphenylbarbituric acid]: mp 288 °C (via OCHEM). Listed for Cc1cc(C(=O)O)c(C)n1C(C)C [2,5-Dimethyl-1-(propan-2-yl)-1H-pyrrole-3-carboxylic acid]: mp 179 °C (via OCHEM). CN(C)CCN=C=S [2-Isothiocyanato-N,N-dimethylethan-1-amine] has mp 36 °C (via OCHEM).

Excerpt, the final 3 entries:

For O=C1NC(=O)C(c2ccccc2)(c2ccccc2)C(=O)N1 [5,5-Diphenylbarbituric acid] the data give mp 288 °C (via OCHEM).
For Cc1cc(C(=O)O)c(C)n1C(C)C [2,5-Dimethyl-1-(propan-2-yl)-1H-pyrrole-3-carboxylic acid] the data give mp 179 °C (via OCHEM).
For CN(C)CCN=C=S [2-Isothiocyanato-N,N-dimethylethan-1-amine] the data give mp 36 °C (via OCHEM).

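These are experimental values that the OPERA curators gathered from public databases to train and test their QSAR models. One number stands for a compound and property, with no spread given. Conditions of the individual experiments are not part of the data. A value may pool stereoisomers or salt forms, and the file does not say which form was measured. Unmarked limits or estimates from the upstream databases cannot be ruled out.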